Patent EP0032748B1, “Thiophene derivatives” (UBE INDUSTRIES, LTD., priority 1980, dated 1981)

Columns and labels:
[1] = system: cucumber (variety: Sagami Hanjiro); assay: Test Example 7: degree of phytotoxicity on cucumber (injury rating); type: in vivo; conditions: concentration of spray liquid 200 ppm
Text: (§1) On the following day, the seedlings were inoculated by atomizing technique with a spore suspension of cucumber powdery mildew fungus (Erysiphe cicholrcearum).

[2] = system: cucumber powdery mildew fungus (Erysiphe cicholrcearum); assay: Test Example 7: control effect on cucumber powdery mildew (spray on seedlings); type: in vivo; conditions: concentration of spray liquid 200 ppm, ten days after the inoculation
Text: as §1

[3] = system: paddy rice; conditions: Table 4, spray liquid 500 ppm
[4] = system: Pellicularia sasakii; type: in vivo; conditions: Table 4, spray liquid 500 ppm, paddy rice sheath blight

Which Degree of phytotoxicity [1] does the source give for CCOC(=O)c1sc(C(=O)OCC)c(OC(=O)c2ccco2)c1OC(=O)c1ccco1 [Compound No. 296, 3,4-Di-(2'-furoyloxy)-2,5-dicarbethoxythiophene] here?
Its Degree of phytotoxicity is 0.

And the “Control value (%)” value [2]?
The value was 100%.

And the Degree of phytotoxicity [3]?
Its Degree of phytotoxicity is 0.

What about the Control value [4] of the same compound?
Its Control value is 83%.
